Amino acid sequences for entries named in this document (tags omitted). Residues count along the entry.
UniProt P06756, 891-1048 limits assumed: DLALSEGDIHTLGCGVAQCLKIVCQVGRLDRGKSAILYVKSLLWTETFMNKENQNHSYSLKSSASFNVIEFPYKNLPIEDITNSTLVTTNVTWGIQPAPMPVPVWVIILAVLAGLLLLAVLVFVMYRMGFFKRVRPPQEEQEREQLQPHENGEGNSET
UniProt P06756, 31-889 limits assumed: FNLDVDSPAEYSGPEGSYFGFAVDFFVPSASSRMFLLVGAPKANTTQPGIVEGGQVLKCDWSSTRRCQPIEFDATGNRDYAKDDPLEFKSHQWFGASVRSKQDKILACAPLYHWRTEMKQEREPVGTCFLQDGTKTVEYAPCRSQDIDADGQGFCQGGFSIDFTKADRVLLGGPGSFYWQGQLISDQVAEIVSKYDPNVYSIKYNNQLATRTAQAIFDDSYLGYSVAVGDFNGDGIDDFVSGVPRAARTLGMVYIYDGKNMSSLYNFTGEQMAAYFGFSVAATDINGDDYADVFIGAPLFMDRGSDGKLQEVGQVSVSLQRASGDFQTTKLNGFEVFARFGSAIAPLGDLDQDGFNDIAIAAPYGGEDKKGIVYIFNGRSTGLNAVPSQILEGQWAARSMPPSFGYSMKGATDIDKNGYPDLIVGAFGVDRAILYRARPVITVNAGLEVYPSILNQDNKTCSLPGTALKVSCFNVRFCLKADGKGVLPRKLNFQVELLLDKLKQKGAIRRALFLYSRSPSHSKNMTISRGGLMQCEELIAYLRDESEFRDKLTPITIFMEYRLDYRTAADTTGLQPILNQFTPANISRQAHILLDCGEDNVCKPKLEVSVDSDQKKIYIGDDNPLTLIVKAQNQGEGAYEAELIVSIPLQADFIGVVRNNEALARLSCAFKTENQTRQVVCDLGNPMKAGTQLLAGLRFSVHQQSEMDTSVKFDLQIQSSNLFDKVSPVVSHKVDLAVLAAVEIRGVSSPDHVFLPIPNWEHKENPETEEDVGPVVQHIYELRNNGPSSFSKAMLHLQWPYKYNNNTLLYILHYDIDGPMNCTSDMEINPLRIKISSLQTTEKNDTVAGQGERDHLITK
UniProt P18084, 24-799: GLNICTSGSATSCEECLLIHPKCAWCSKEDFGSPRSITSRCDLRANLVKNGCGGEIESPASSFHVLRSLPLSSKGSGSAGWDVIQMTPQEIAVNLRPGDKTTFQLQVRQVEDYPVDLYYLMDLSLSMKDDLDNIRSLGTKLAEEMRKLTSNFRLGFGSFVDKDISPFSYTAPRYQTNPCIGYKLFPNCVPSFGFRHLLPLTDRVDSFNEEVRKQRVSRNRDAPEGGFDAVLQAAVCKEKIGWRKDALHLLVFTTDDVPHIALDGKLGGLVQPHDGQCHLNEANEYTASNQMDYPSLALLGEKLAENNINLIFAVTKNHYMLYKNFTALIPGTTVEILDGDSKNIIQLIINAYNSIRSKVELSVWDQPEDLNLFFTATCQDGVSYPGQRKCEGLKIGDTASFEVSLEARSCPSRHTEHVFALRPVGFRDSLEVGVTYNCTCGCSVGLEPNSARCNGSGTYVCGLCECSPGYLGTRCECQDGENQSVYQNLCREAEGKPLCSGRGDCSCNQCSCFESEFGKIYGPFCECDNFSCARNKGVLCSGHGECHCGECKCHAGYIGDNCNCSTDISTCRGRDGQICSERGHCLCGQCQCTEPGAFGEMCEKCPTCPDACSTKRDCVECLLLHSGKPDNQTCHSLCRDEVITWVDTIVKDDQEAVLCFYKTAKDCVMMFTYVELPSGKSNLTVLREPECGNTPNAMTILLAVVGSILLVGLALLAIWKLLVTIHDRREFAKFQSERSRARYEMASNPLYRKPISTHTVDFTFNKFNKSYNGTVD
UniProt P18564, 22-788: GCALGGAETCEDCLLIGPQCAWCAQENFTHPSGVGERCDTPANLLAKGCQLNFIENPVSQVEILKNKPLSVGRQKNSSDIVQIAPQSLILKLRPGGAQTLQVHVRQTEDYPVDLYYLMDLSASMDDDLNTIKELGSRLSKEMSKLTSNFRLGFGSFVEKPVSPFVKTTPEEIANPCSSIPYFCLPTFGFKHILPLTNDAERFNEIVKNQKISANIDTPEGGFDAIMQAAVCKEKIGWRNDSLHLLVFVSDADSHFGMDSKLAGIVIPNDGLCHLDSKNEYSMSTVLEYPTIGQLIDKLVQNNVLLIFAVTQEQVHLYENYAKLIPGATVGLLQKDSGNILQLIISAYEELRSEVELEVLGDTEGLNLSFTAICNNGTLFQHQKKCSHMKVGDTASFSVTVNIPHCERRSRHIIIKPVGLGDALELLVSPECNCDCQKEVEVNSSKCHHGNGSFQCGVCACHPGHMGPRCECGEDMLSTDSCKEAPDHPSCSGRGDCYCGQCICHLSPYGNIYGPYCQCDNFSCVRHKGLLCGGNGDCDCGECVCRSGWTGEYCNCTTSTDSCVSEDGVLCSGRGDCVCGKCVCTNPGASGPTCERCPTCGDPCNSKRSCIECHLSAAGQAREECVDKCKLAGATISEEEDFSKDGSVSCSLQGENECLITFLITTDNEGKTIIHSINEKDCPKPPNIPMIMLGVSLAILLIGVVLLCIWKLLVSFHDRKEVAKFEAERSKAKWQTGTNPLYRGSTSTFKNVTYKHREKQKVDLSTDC

In patent US10870684B2, “Disintegrin variants and pharmaceutical uses thereof” (National Cheng Kung University, priority 2014, dated 2020):

Experiments:
integrin αvβ5 = target: T1, integrin αvβ5 (Homo sapiens, UniProt P06756+P18084); test: Cell adhesion inhibition: HT-29 cells to vitronectin; type: cell-based; details: adhesion of HT-29 cells to vitronectin; read-out: IC50 [Interaction towards targets] αvβ5
T1 construct: host or cells: HT-29

integrin αvβ6 = target: T2, integrin αvβ6 (Homo sapiens, UniProt P06756+P18564); test: Cell adhesion inhibition: HT-29 cells to fibronectin; type: cell-based; details: adhesion of HT-29 cells to fibronectin; read-out: IC50 [Interaction towards targets] αvβ6
T2 construct: host or cells: HT-29

In the case of “rhodostomin [Rho wild-type, reference compound]”, the IC50 (integrin αvβ5) is reported as 94.4 nM and the IC50 (integrin αvβ6) is reported as 176 nM.
